Data from patent publication US9932349B2 (priority 2000, dated 2018).

By UniProt entry, the sequences of proteins in these tests, tags left out. Where a name states a change or a piece, a line headed by the entry shows the natural chain unless it says otherwise. Residues count along the entry.
UniProt A0A286XTF2, 1-366: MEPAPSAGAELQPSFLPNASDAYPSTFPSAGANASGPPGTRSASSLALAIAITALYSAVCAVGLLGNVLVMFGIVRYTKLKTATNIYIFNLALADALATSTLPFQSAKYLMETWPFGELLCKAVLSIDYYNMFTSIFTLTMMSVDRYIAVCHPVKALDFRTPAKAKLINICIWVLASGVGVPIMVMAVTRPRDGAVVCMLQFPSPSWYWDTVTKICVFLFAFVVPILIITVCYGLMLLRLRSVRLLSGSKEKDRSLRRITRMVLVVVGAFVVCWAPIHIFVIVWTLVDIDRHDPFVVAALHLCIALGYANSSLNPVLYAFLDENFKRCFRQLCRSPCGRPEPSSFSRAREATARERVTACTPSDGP

Molecular target: T1, δ opioid receptor (Cavia porcellus, UniProt A0A286XTF2)
T1 construct: determined in guinea pig brain cells; from tissue; host or cells: guinea pig brain
Assay: biochemical
Type: binding, guinea pig
Conditions: [3H]Naltrindole (δ)

`Oc1ccc2c3c1O[C@H]1c4[nH]c5ccccc5c4C[C@@]4(O)[C@@H](C2)N(CC2CC2)CC[C@]314` [naltrindole (3-OH), Naltrindole, reference compound] was tested, and the Ki was 0.13 ± 0.02 nM.
